Reference: ChEMBL document CHEMBL3244133, “Synthesis and biological activities of some uronic acids, uronates, uronamides, and urononitriles of pyrimidine nucleosides” (J Med Chem, 1978)

Assay: Dissociation constant, pKa of the compound
Type: physicochemical

pKa: 7.7
SMILES: O=c1[nH]c(=O)n([C@H]2C[C@H](O)[C@@H](CO)O2)cc1F [FLOXURIDINE]
